Measured values from article PMC5538626, “Structural and functional analysis of the GABARAP interaction motif (GIM)” (EMBO Reports, 2017).

What was measured:
endogenous GABARAP = assay: Co-immunoprecipitation of GFP-mCherry-p62/SQSTM1 with endogenous GABARAP, HEK293 cells; format: cell-based; settings: HEK293, basal conditions, anti-RFP beads, Western blot; Fig 5A
Experimental: (§1) Blots were probed for the presence of endogenous GABARAP and LC3B proteins. • 3xFlag‐FIP200 WT, E703V, I705V, E703V/I705V and F702A/I705A were overexpressed in HEK293 cells and immunoprecipitated using anti‐Flag beads and subjected to SDS–PAGE and Western blotting. Blots were probed for the presence of endogenous GABARAP and LC3B proteins. • GFP‐FUNDC1 WT, E19V, L21V, E19V/L21V and Y18A/L21A were overexpressed in HEK293 cells and either treated with vehicle only (DMSO) or 20 μM CCCP for 2 h, lysed and GFP‐FUNDC1 immunoprecipitated using anti‐GFP beads (or anti‐RFP beads as control) and subjected to SDS–PAGE and Western blotting. Blots were probed for the presence of endogenous GABARAP and LC3B proteins.

endogenous LC3B = assay: Co-immunoprecipitation of GFP-mCherry-p62/SQSTM1 with endogenous LC3B, HEK293 cells; format: cell-based; settings: HEK293, basal conditions, anti-RFP beads, Western blot, Fig 5A
Experimental: as §1

p62/SQSTM1‐WT: GFP-mCherry-p62/SQSTM1 WT protein
interaction of p62/SQSTM1 with endogenous GABARAP (endogenous GABARAP): weakly
interaction of p62/SQSTM1 with endogenous LC3B (endogenous LC3B): co‐precipitated with endogenous LC3B
interaction of p62/SQSTM1 with endogenous LC3B (endogenous LC3B; listed as p62/QSQTM1): clearly shows a preference for LC3 interaction
